For 56 compounds, activity change, negative = inhibition results are on record in PubChem BioAssay AID2662 (National Center for Advancing Translational Sciences (NCATS), 2010).

Protein sequences, listed by entry. Tags and fused reporters are not part of them.
UniProt Q03164, whole entry, looked up: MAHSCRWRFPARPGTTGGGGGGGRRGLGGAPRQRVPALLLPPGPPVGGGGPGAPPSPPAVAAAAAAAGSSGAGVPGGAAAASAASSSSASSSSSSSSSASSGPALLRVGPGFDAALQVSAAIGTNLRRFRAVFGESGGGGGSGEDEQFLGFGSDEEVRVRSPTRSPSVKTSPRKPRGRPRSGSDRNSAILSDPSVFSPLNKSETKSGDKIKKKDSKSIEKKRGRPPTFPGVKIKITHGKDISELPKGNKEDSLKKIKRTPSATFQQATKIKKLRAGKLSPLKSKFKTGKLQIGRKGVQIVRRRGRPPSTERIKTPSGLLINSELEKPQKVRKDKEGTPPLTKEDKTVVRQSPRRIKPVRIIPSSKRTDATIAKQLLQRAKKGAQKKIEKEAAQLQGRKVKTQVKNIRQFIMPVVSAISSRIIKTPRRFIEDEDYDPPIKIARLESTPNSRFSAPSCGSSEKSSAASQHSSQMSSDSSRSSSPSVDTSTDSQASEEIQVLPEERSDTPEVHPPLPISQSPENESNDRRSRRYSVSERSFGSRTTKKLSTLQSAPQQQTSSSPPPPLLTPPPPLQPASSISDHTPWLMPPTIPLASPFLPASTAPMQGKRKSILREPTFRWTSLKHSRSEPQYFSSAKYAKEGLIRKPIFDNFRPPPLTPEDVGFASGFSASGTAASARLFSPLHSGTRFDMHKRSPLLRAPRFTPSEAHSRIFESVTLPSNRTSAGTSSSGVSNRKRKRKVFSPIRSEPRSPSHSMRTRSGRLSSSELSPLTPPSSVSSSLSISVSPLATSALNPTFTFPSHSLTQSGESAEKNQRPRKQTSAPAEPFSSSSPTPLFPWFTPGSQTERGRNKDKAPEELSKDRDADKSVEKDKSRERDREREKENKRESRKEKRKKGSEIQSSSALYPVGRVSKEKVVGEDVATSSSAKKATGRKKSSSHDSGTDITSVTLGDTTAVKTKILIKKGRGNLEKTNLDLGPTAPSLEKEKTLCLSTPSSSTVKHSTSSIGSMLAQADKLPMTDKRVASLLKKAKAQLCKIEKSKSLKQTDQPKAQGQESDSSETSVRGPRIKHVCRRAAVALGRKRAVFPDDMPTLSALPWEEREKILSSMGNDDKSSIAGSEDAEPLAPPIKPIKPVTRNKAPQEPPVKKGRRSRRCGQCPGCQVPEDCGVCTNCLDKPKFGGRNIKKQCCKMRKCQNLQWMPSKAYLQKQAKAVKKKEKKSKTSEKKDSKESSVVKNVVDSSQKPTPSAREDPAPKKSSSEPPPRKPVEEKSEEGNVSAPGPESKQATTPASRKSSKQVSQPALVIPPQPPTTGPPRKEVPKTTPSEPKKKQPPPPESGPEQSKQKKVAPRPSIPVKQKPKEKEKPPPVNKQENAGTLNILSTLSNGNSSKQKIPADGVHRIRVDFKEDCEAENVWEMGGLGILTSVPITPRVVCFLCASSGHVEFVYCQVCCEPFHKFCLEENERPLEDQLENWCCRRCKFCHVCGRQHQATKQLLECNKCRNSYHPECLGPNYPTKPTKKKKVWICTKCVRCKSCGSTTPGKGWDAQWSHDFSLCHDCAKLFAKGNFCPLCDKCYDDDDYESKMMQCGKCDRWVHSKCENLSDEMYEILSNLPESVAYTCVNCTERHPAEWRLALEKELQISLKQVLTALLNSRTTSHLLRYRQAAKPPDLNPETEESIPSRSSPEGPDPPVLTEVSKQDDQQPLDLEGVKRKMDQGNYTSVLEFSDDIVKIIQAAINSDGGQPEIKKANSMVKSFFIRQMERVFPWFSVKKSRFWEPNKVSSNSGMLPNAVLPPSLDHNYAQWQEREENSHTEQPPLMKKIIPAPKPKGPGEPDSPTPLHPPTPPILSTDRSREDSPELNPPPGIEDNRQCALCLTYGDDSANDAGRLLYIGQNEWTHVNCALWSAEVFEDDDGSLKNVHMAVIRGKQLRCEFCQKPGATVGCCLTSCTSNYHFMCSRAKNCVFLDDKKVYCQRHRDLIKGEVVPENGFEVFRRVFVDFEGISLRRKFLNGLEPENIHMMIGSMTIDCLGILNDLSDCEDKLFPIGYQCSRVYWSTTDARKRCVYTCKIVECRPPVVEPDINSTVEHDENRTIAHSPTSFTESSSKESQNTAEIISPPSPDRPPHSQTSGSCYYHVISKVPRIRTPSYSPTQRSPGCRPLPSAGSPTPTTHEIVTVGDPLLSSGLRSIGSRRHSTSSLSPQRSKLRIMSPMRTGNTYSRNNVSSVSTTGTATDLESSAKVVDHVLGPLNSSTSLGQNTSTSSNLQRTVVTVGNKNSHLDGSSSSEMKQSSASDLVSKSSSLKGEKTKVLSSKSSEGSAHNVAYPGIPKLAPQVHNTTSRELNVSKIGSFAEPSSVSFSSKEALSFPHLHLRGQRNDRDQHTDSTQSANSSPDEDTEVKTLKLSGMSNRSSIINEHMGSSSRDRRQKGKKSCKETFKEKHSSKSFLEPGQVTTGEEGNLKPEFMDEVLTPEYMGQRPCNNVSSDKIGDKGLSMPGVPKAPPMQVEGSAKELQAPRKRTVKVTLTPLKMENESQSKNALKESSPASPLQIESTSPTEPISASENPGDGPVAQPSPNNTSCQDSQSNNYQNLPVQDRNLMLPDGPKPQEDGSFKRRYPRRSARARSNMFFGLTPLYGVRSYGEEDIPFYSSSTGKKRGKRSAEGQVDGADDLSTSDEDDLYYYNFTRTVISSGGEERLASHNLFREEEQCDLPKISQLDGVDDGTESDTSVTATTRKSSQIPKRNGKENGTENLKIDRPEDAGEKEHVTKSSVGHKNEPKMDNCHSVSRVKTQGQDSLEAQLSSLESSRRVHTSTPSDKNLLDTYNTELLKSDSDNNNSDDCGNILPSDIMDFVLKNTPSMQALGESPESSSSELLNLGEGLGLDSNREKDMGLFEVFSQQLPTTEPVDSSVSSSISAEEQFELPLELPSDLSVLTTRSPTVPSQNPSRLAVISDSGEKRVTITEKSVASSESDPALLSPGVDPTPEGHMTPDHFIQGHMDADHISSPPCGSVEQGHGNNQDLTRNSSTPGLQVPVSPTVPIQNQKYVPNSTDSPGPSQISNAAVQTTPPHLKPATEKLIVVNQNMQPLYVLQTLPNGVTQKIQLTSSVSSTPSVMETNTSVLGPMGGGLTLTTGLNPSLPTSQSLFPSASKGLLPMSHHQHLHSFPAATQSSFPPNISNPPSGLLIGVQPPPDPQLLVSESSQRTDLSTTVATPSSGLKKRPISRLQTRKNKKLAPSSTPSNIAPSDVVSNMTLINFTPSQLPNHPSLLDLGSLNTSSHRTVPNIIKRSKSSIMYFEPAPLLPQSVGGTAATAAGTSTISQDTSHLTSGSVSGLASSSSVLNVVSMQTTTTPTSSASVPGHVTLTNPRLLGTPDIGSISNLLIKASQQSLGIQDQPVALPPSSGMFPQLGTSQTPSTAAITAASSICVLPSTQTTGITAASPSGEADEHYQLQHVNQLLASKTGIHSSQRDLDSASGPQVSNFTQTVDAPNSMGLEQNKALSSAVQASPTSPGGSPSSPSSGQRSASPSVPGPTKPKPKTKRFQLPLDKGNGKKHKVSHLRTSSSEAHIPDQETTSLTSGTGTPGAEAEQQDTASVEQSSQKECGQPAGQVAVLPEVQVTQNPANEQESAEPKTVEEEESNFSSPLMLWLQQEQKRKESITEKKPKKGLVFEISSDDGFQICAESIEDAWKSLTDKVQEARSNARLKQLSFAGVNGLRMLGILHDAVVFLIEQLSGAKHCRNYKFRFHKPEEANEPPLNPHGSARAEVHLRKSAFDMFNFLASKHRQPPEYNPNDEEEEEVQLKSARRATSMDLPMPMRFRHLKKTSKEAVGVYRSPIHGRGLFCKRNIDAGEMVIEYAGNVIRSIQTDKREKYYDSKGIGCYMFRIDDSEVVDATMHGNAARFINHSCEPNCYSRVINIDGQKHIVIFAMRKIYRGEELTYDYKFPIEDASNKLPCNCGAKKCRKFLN

Values joined by “and” are separate entries in the source; they are usually repeats but may differ in a detail not shown here. Equal entries are not always repeated. The list shows a part of the results, in another mix than the full data. Active and inactive are the calls of the source. Calls come from the whole dose curve; as a rule, active = well fitted inhibition curve with a large enough effect in the polarisation, with a control signal flat (not every such curve was filed as active); inconclusive = small, poorly fitted or top-dose-only effect, or effect the other way, or a change in a side signal; inactive = no such curve, though single readings can be large or run the other way; the % refers to the polarisation.

The assay has as its target Histone-lysine N-methyltransferase 2A (Homo sapiens) (UniProt Q03164). Description: qHTS Fluorescence Polarization Assay for Inhibitors of MLL CXXC domain - DNA interaction. Particulars: MLL-CXXC / FITC-HOXA9 DNA fluorescence polarization; at 115 µM (top of the series).
For `Nc1cccc2ccc([As](=O)(O)O)cc12`, the activity change, negative = inhibition was inactive: -23.3%. The result for `CCN(N=Nc1nonc1N)c1nonc1N` reads inactive: 7.06%. Regarding `O=[N+]([O-])c1cc([N+](=O)[O-])c(CCN2CCOCC2)c([N+](=O)[O-])c1`, the activity change, negative = inhibition is inactive: -2.76%. As to `Cc1cc(SC(NC(=O)c2ccc(F)cc2)C(Cl)(Cl)Cl)ncn1` (stereo unspecified), the activity change, negative = inhibition is inactive: 2.39%.

With `CCOP(=O)(Nc1ccccc1)OCC`, the activity change, negative = inhibition was inactive: -7.39% and inactive: 9.72%. The result for `CN(C(=O)Cc1ccc(Cl)c(Cl)c1)[C@H]1CCCC[C@@H]1N1CCCC1` reads inactive: 0.651% and inactive: -17.9%. For the compound `Cc1ccc(NP(=O)(Oc2ccccc2F)Oc2ccccc2F)nc1`, the activity change, negative = inhibition was inactive: -7.65%. In the case of `O=P(Nc1nc2ccc(Cl)cc2s1)(c1ccccc1)c1ccccc1` it was inactive: 1.58%.

Take `O=C(O)c1ccccc1[As](=O)(O)O`: the activity change, negative = inhibition is inactive: -4.9%.

Consider `Cc1ccccc1OP(=O)(Nc1ccccn1)Oc1ccccc1C`, for which the activity change, negative = inhibition was inactive: -12.5%.

On to `CN(C)C(=O)Oc1noc2ccccc12`, for which the activity change, negative = inhibition is inactive: -8.31%.

For the compound `O=C(OC1CN2CCC1CC2)c1ccccc1` (stereo unspecified), the activity change, negative = inhibition is inactive: 5.22% and inactive: -4.03%. The result for `CCC(=O)N1C2C3N(C(=O)CC)C1C1N(C(=O)CC)C(C(N1C(=O)CC)N3C(=O)CC)N2C(=O)CC` reads inactive: 5.06%; that for `COC(=O)c1cc2c(s1)N=C(c1ccccc1)N(C)P2(=O)N1CCOCC1` (stereo unspecified), inactive: -3.53%; that for `CC(=O)NC(SC(=S)N(CC(C)C)CC(C)C)C(Cl)(Cl)Cl` (stereo unspecified), inactive: 0.262%.

As to `Cc1ccc(OP(=O)(Nc2ccccn2)Oc2ccc(C)cc2)cc1`, the activity change, negative = inhibition was inactive: 6.58%. The result for `c1ccc(-c2nn[nH]n2)c(-c2nn[nH]n2)c1` reads inactive: -1.8%; that for `Cc1ccc(NP(=O)(Oc2cccc(C)c2)Oc2cccc(C)c2)nc1`, inactive: 0.812%. The result for `CCOC(=O)NC(Sc1ccccc1)C(Cl)(Cl)Cl` (stereo unspecified) reads inactive: -2.57%; that for `O=C(NC1CCS(=O)(=O)C1)NP(=S)(Oc1ccccc1)Oc1ccccc1` (stereo unspecified), inactive: -0.962%; that for `CCNC(=S)/N=C(\N)N[N+](=O)[O-]`, inactive: -1.11%. As to `CC(=O)Nc1ccc([As](=O)(O)O)c(O)c1`, the activity change, negative = inhibition is inactive: -11.1%. The result for `CC(=O)Nc1ccc(Oc2c([N+](=O)[O-])cc([N+](=O)[O-])cc2[N+](=O)[O-])cc1` reads inactive: -1.26%; that for `C[C@H]1OP(=O)(Oc2ccccc2)C[C@@H]2O[C@@H]21` (stereo partly specified), inactive: 0.926%; that for `C[C@@H]1C=CCP(=O)(Oc2ccccc2)O1` (stereo partly specified), inactive: 11.4%. The result for `CC(=O)c1ccc(N2CC2c2ccncc2)cc1` (stereo unspecified) reads inactive: -16.9%; that for `CC(C)(C)C(=O)NC(Sc1ccccc1)C(Cl)(Cl)Cl` (stereo unspecified), inactive: -7.51%; that for `O=P1(Nc2nc3ccc(Cl)cc3s2)COc2ccccc2O1` (stereo unspecified), inactive: -3.21%. Turning to `CCOc1ccc(C2=NCC(CBr)S2)cc1` (stereo unspecified), the activity change, negative = inhibition is inactive: 10.4%.

For the compound `c1nnnn1CCn1cnnn1`, the activity change, negative = inhibition was inactive: -0.977%.

For `O=P(Nc1nccs1)(c1ccccc1)c1ccccc1`, the activity change, negative = inhibition is inactive: 2.02%. Take `CC(C)C(=O)NC(Sc1ccccc1)C(Cl)(Cl)Cl` (stereo unspecified): the activity change, negative = inhibition was inactive: 13.6%.

`O=C(OC1CN2CCC1CC2)c1cccc(Cl)c1` (stereo unspecified): the activity change, negative = inhibition is inactive: 10.3%.

With `C(Cc1nn[nH]n1)Cc1nn[nH]n1`, the activity change, negative = inhibition is inactive: 7.02%. For `Nc1ccc([As](=O)(O)c2ccc([N+](=O)[O-])cc2)cc1`, the activity change, negative = inhibition was inactive: -2.27%. Turning to `O=[As](O)(c1ccccc1)c1ccc(O)cc1`, the activity change, negative = inhibition is inactive: 16.7%. Consider `CC(=O)NC(SC(=S)N(C)C)C(Cl)(Cl)Cl` (stereo unspecified), for which the activity change, negative = inhibition is inactive: -5.05%.

As to `O=[N+]([O-])c1ncn(CCn2cnc([N+](=O)[O-])n2)n1`, the activity change, negative = inhibition is inactive: 3.66%. The result for `O=[N+]([O-])c1ccc(O)c(/C=N/Nc2ccc([N+](=O)[O-])cc2[N+](=O)[O-])c1` reads inactive: -14.3%. `CN(C(=O)Cc1ccccc1)[C@H]1CC[C@@]2(CCCO2)C[C@@H]1N1CCCC1`: the activity change, negative = inhibition was inactive: -10.8%. With `O=P(Nc1nc2ccccc2s1)(c1ccccc1)c1ccccc1`, the activity change, negative = inhibition was inactive: -1.38%. As for `C[C@H]1OP(=O)(Oc2ccccc2)[C@H](O)[C@H](O)[C@H]1N=[N+]=[N-]` (stereo partly specified), the activity change, negative = inhibition is inactive: 5.75%. The result for `CN(C)C1(CNC(=O)c2ccc(Cl)c(S(N)(=O)=O)c2)CCCCC1` reads inactive: -5.25%. `O=P(Nc1ccccn1)(c1ccc(Br)cc1)c1ccc(Br)cc1`: the activity change, negative = inhibition was inactive: 1.31%.

For `Nc1cccc([As](=O)(O)c2ccccc2)c1`, the activity change, negative = inhibition was inactive: 7.23%. Regarding `Cc1ccc(OCC(=O)OC2CN3CCC2CC3)cc1` (stereo unspecified), the activity change, negative = inhibition is inactive: 6.65%. In the case of `O=[As](O)(c1cccs1)c1cccs1` it was inactive: -0.813%; in that of `O=P1(Nc2ccc(Br)cn2)COc2ccccc2OC1`, inactive: -5.44%. Regarding `O=P1(Nc2ncccn2)COc2ccccc2OC1`, the activity change, negative = inhibition is inactive: -7.02%. Turning to `CN(C)C1(CNC(=O)c2ccc(S(C)(=O)=O)cc2)CCCCC1`, the activity change, negative = inhibition was inactive: -3.4%. The result for `O=C(/C=C/c1ccccc1)OC1CN2CCC1CC2` (stereo unspecified) reads inactive: 12.3%. In the case of `Cc1nn(-c2ccccc2)c2c1P(=O)(N1CCOCC1)N(C)C(c1ccccc1)=N2` (stereo unspecified) it was inactive: -8.25%; in that of `Cc1ccc(C(=O)OC2CN3CCC2CC3)cc1` (stereo unspecified), inactive: -25.8%. Regarding `CC1CCC(C(C)C)C(OP(=O)(Nc2ccccn2)c2ccccc2)C1` (stereo unspecified), the activity change, negative = inhibition is inactive: -1.75%.

On to `CN(C(=O)Cc1ccc(Cl)c(Cl)c1)[C@@H]1CCCC[C@H]1N1CCCC1`, for which the activity change, negative = inhibition is inactive: -0.14% and inactive: -12%. In the case of `CC(C)/C=N\N=C(\N)N[N+](=O)[O-]` it was inactive: -3.25%.
